Measured values reported in US20240130994A1, “IONIC LIQUID FORMULATIONS FOR TREATING DIABETES” (i2O Therapeutics, Inc., priority 2020, published 2024).

Assay: Physical form of choline-based ionic liquids at room temperature
Type: physicochemical
Settings: for appearance and physical form: room temperature, ratio as in label
Description: Several ionic liquids comprising choline as a cation and various anions were synthesized. […] For anions not miscible with the aqueous choline bicarbonate solution, a co-solvent, such as ethanol, was added until a homogenous mixture formed. The mixture was stirred at room temperature until CO2 evolution ceased. Solvent was removed by rotary evaporation at 60° C. for 20 minutes, and each product was dried in a vacuum oven for 48 hours at 60° C.

L-(+)-Tartaric Acid
Physical Form (Ratios Listed as Cation:Anion) (cation:anion 1:1, room temperature): Solid
Physical Form (Ratios Listed as Cation:Anion) (cation:anion 2:1, room temperature): Liquid
appearance and physical form (listed as choline-tartaric acid (1:1)): solid
appearance and physical form (listed as choline-tartaric acid (2:1)): clear liquids
